Paper PMC6887663 (Pharmacology Research & Perspectives, 2019)

Chains of the proteins cited; added tags and fusions are not shown.
UniProt P08183, whole entry: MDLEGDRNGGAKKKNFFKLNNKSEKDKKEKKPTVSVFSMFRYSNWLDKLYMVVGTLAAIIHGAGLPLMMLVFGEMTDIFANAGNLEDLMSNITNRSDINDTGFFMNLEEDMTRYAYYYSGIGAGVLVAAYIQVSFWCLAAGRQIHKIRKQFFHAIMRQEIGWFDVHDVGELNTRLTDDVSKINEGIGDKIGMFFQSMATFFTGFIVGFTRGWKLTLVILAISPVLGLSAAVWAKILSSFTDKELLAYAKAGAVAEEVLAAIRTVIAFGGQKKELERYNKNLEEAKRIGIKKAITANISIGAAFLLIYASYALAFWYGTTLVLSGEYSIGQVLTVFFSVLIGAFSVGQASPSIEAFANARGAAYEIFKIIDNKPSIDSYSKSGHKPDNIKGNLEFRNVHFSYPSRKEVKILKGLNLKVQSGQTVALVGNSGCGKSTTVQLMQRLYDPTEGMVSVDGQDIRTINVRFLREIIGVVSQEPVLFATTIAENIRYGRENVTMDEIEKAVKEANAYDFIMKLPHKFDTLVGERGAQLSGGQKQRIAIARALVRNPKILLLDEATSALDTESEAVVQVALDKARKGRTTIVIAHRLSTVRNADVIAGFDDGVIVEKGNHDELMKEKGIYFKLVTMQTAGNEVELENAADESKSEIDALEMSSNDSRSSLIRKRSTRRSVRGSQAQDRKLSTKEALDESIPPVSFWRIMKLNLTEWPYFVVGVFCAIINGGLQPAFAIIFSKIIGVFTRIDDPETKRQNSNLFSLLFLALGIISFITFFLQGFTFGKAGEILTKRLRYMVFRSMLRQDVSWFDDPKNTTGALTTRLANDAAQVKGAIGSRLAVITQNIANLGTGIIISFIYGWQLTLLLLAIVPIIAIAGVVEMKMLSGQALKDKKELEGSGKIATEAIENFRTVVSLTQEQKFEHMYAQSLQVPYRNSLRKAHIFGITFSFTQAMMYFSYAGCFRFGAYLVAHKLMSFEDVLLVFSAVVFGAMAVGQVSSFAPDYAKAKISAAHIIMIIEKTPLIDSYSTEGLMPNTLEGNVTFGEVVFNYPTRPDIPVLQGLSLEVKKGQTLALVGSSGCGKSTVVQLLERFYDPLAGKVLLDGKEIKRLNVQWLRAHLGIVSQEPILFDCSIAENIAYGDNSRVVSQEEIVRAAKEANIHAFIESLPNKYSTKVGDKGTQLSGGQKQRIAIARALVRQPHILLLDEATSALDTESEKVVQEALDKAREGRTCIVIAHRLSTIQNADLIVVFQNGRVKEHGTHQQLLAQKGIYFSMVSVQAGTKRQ

Columns and labels:
P‐gp [1] = target: T1, P‐gp (Homo sapiens, UniProt P08183); test: P-gp substrate assessment in MDCKII-MDR1 and WT MDCKII cells; type: in vitro ADME; settings: [^3H]digoxin; in both DMF and MMF experiments; reduced by verapamil
P‐gp [2] = target: T1, P‐gp; test: P-gp inhibition, [3H]digoxin efflux in Caco-2 cells; settings: [^3H]digoxin in the absence of DMF and MMF

**Q.** Which results are given for C[C@H]1O[C@@H](O[C@H]2[C@@H](O)C[C@H](O[C@H]3[C@@H](O)C[C@H](O[C@H]4CC[C@@]5(C)[C@H](CC[C@@H]6[C@@H]5C[C@@H](O)[C@]5(C)[C@@H](C7=CC(=O)OC7)CC[C@]65O)C4)O[C@@H]3C)O[C@@H]2C)C[C@H](O)[C@@H]1O [[^3H]digoxin, reference compound]?
**A.** net efflux ratio of probe substrate (P‐gp [1]): > 16.6; efflux ratio of probe substrate (P‐gp [2]): ≥ 5.89
